This test deals with BCL6 (Homo sapiens (Human), UniProt P41182). Briefly: Immunofluorescence high content imaging of BCL6 degradation in T47D cells. The method, then:
Immunofluorescence Protocol for High Cotent Imaging of BCL6
T47D cells were seeded in 100 μl volume of RPMI1640-10% FBS in a 96-well black/clear bottom plates for adherent lines (Corning #3904).
Day 1. T47D breast cancer epithelial cells were seeded at a density so that confluence is ˜70-90% at endpoint. Cells were seeded at 7K/0.1 ml/well the morning prior to the addition of exemplary bifunctional degradation compounds.
Day 2. Prepare an 11 point 3-fold serial dilution of exemplary bifunctional compound in DMSO and aliquot an appropriate volume to cell growth media to generate a 2× final concentration of exemplary bifunctional compound. Add an equal volume (0.1 ml) of 2× exemplary bifunctional compound/media mix to previously plated cells, for a final top concentration in aqueous cell growth media of 0.1 or 1 μM. Incubate for 3 days at 37° C., 5% CO2.
Day 5 Immunofluorescence. Discard cell media. Wash wells with 200 μl of room temperature phosphate-buffered saline (PBS). Prepared 4% paraformaldehyde (PFA) from 16% PFA (Electron Microscopy Sciences #15710) using 1×PBS. Fifty μl of 4% PF was added to each well and incubate for 15 minutes at room temperature to fix the cells. The PFA was aspirated and the cells washed twice with PBS (200 μl)).
Prepared 0.1% Triton X-100 in PBS using 10% triton X-100 stock. […]
Plates were equilibrated to room temperature prior to reading. […]

Turning to `CNC(=O)COc1cc2cc(Nc3nc(N4CCO[C@H](COc5ccc6c(c5)C(=O)N(C5CCC(=O)NC5=O)C6=O)C4)ncc3Cl)ccc2n(C(C)C)c1=O` (some centres unmarked), the “Dmax (%)**” value was “B (50 <= B < 70)”. For the same molecule, under “read-out: IC50 (nM)***”, the IC50 was in the range of 50 to 100 nM.

What is called IC50 is the concentration needed to halve the response being measured.

(Values after US12310975B2, “Modulators of BCL6 proteolysis and associated methods of use” (Arvinas Operations, Inc., priority 2019, dated 2025).)
